# Results taken from PubChem BioAssay AID376 (PDSP, 2006).
# Amino acid sequences for entries named in this document (tags omitted).
# UniProt Q12809, whole entry: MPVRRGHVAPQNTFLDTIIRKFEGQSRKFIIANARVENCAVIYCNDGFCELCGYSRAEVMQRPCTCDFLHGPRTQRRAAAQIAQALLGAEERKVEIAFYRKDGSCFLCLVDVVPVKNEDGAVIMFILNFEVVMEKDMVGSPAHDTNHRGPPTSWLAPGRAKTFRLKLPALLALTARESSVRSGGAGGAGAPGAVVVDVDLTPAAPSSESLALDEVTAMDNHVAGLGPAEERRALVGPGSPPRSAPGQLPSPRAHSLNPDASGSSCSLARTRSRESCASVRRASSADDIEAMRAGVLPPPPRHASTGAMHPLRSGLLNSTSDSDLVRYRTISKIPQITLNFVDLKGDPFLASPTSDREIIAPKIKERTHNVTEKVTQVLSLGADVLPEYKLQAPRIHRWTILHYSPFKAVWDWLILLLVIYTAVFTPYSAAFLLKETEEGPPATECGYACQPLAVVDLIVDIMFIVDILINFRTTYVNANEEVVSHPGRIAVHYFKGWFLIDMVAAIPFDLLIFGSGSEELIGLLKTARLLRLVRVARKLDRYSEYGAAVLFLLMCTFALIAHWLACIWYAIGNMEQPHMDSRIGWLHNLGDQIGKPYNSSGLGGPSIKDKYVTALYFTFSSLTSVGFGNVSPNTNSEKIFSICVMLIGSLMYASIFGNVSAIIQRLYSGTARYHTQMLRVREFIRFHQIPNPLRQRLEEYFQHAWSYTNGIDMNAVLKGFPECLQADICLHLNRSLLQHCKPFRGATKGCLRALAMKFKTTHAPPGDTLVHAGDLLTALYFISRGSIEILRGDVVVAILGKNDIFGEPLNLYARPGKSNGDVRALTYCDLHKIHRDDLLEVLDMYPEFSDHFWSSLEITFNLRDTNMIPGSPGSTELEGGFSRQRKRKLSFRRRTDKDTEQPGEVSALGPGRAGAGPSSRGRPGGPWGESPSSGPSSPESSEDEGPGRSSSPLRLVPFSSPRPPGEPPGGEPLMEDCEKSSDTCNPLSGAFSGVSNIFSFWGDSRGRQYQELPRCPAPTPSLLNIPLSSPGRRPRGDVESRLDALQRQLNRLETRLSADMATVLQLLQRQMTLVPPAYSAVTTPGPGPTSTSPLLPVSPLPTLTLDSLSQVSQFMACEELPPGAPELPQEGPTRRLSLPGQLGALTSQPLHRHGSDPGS
# The list shows a part of the results, in another mix than the full data. Some salts and complexes are drawn in separate pieces, as the source files them; their charges need not balance. Activity calls are given as the source filed them. Rule as the data show it: active = hERG blockade below about -20% or above about 20%; inactive = in between.
# Biological target: Voltage-gated inwardly rectifying potassium channel KCNH2 (Homo sapiens) (UniProt Q12809)
# Test: modulators of KCNH2 ion channel function, cellular (AID 376);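 also: 0% = buffer alone and 100% = reference blocker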
# Details: hERG-expressing cells, channel activity single-concentration screen; concentration not given here
row,SMILES,hERG blockade
1,NNC(NN)NN.n1nc(-c2nn[nH]n2)n[nH]1,inactive: -11.6%
2,N1=C(c2nnc(-c3nn[nH]n3)nn2)NNN1,inactive: 9.65%
3,[Au+].[Au+].c1ccc([PH+](c2ccccc2)c2ccccc2)cc1.c1ccc([PH+](c2ccccc2)c2ccccc2)cc1.n1n[n-]c(-c2nnn[n-]2)n1,inactive: 0.855%
